Values of other authors in patent US20040175402A1, “Formulation” (priority 2001, published 2004).

Amino acid sequences for entries named in this document (tags omitted).
UniProt P03372, whole entry: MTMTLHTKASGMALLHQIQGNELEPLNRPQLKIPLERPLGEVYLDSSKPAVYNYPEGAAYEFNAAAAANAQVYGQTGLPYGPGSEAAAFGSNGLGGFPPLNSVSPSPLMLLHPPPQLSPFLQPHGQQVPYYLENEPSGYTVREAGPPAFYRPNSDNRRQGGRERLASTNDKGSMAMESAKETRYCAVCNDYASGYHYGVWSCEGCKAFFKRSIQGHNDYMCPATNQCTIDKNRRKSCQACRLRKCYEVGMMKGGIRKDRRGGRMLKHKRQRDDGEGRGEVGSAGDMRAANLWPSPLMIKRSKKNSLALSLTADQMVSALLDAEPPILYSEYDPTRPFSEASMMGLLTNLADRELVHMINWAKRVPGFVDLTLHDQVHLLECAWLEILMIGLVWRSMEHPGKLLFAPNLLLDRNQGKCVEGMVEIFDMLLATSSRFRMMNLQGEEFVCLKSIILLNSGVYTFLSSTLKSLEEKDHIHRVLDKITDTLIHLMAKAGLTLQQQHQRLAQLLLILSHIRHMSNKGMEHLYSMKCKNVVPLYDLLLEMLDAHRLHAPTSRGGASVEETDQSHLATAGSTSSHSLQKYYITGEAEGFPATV

Target: ER (Homo sapiens, UniProt P03372)
Conditions: compared with oestradiol

Compound: C[C@]12CC[C@@H]3c4ccc(O)cc4C[C@@H](CCCCCCCCC[S+]([O-])CCCC(F)(F)C(F)(F)F)[C@H]3[C@@H]1CC[C@@H]2O (stereo partly drawn) [Fulvestrant, 7α-[9-(4,4,5,5,5-Pentafluoropentylsulphinyl)nonyl]oestra-1,3-5(10)-triene-3,17β-diol]
- affinity for ER: affinity similar to that of oestradiol
